{"source": "the CheMixHub ionic liquid set", "assay": "xn = mol fraction of the nth substance listed", "settings": "100 kPa, x1 = 0.0001802", "note": "± gives the uncertainty stated by the source.", "data": [{"smiles": "CCC[N+](CCC)(CCC)CCC.O=[N+]([O-])[O-]", "note": "+ CCCCCCCCCCCCOS(=O)(=O)[O-].[Na+] + O", "values": [{"measurement": "viscosity", "setting": "293.15 K, x2 = 1.81e-06", "value": "1.013 ± 0.029", "unit": "mPa·s"}, {"measurement": "viscosity", "setting": "293.15 K, x2 = 3.61e-06", "value": "1.015 ± 0.029", "unit": "mPa·s"}, {"measurement": "viscosity", "setting": "293.15 K, x2 = 5.42e-06", "value": "1.016 ± 0.029", "unit": "mPa·s"}, {"measurement": "viscosity", "setting": "293.15 K, x2 = 7.22e-06", "value": "1.016 ± 0.029", "unit": "mPa·s"}, {"measurement": "viscosity", "setting": "293.15 K, x2 = 9.03e-06", "value": "1.017 ± 0.029", "unit": "mPa·s"}, {"measurement": "viscosity", "setting": "293.15 K, x2 = 1.084e-05", "value": "1.018 ± 0.029", "unit": "mPa·s"}, {"measurement": "viscosity", "setting": "293.15 K, x2 = 1.264e-05", "value": "1.019 ± 0.029", "unit": "mPa·s"}, {"measurement": "viscosity", "setting": "293.15 K, x2 = 1.445e-05", "value": "1.019 ± 0.029", "unit": "mPa·s"}, {"measurement": "viscosity", "setting": "293.15 K, x2 = 1.626e-05", "value": "1.019 ± 0.029", "unit": "mPa·s"}, {"measurement": "viscosity", "setting": "293.15 K, x2 = 1.806e-05", "value": "1.019 ± 0.029", "unit": "mPa·s"}, {"measurement": "viscosity", "setting": "298.15 K, x2 = 1.81e-06", "value": "0.898 ± 0.028", "unit": "mPa·s"}, {"measurement": "viscosity", "setting": "298.15 K, x2 = 3.61e-06", "value": "0.901 ± 0.028", "unit": "mPa·s"}, {"measurement": "viscosity", "setting": "298.15 K, x2 = 5.42e-06", "value": "0.901 ± 0.028", "unit": "mPa·s"}, {"measurement": "viscosity", "setting": "298.15 K, x2 = 7.22e-06", "value": "0.902 ± 0.028", "unit": "mPa·s"}, {"measurement": "viscosity", "setting": "298.15 K, x2 = 9.03e-06", "value": "0.903 ± 0.028", "unit": "mPa·s"}, {"measurement": "viscosity", "setting": "298.15 K, x2 = 1.084e-05", "value": "0.903 ± 0.028", "unit": "mPa·s"}, {"measurement": "viscosity", "setting": "298.15 K, x2 = 1.264e-05", "value": "0.903 ± 0.028", "unit": "mPa·s"}, {"measurement": "viscosity", "setting": "298.15 K, x2 = 1.445e-05", "value": "0.903 ± 0.028", "unit": "mPa·s"}, {"measurement": "viscosity", "setting": "298.15 K, x2 = 1.626e-05", "value": "0.904 ± 0.028", "unit": "mPa·s"}, {"measurement": "viscosity", "setting": "298.15 K, x2 = 1.806e-05", "value": "0.904 ± 0.028", "unit": "mPa·s"}, {"measurement": "viscosity", "setting": "303.15 K, x2 = 1.81e-06", "value": "0.795 ± 0.028", "unit": "mPa·s"}, {"measurement": "viscosity", "setting": "303.15 K, x2 = 3.61e-06", "value": "0.798 ± 0.028", "unit": "mPa·s"}, {"measurement": "viscosity", "setting": "303.15 K, x2 = 5.42e-06", "value": "0.799 ± 0.028", "unit": "mPa·s"}, {"measurement": "viscosity", "setting": "303.15 K, x2 = 7.22e-06", "value": "0.8 ± 0.028", "unit": "mPa·s"}, {"measurement": "viscosity", "setting": "303.15 K, x2 = 9.03e-06", "value": "0.8 ± 0.028", "unit": "mPa·s"}, {"measurement": "viscosity", "setting": "303.15 K, x2 = 1.084e-05", "value": "0.801 ± 0.028", "unit": "mPa·s"}, {"measurement": "viscosity", "setting": "303.15 K, x2 = 1.264e-05", "value": "0.801 ± 0.028", "unit": "mPa·s"}, {"measurement": "viscosity", "setting": "303.15 K, x2 = 1.445e-05", "value": "0.801 ± 0.028", "unit": "mPa·s"}, {"measurement": "viscosity", "setting": "303.15 K, x2 = 1.626e-05", "value": "0.801 ± 0.028", "unit": "mPa·s"}, {"measurement": "viscosity", "setting": "303.15 K, x2 = 1.806e-05", "value": "0.801 ± 0.028", "unit": "mPa·s"}, {"measurement": "viscosity", "setting": "308.15 K, x2 = 1.81e-06", "value": "0.707 ± 0.027", "unit": "mPa·s"}, {"measurement": "viscosity", "setting": "308.15 K, x2 = 3.61e-06", "value": "0.708 ± 0.027", "unit": "mPa·s"}, {"measurement": "viscosity", "setting": "308.15 K, x2 = 5.42e-06", "value": "0.709 ± 0.027", "unit": "mPa·s"}, {"measurement": "viscosity", "setting": "308.15 K, x2 = 7.22e-06", "value": "0.71 ± 0.027", "unit": "mPa·s"}, {"measurement": "viscosity", "setting": "308.15 K, x2 = 9.03e-06", "value": "0.713 ± 0.027", "unit": "mPa·s"}, {"measurement": "viscosity", "setting": "308.15 K, x2 = 1.084e-05", "value": "0.713 ± 0.027", "unit": "mPa·s"}, {"measurement": "viscosity", "setting": "308.15 K, x2 = 1.264e-05", "value": "0.713 ± 0.027", "unit": "mPa·s"}, {"measurement": "viscosity", "setting": "308.15 K, x2 = 1.445e-05", "value": "0.713 ± 0.027", "unit": "mPa·s"}, {"measurement": "viscosity", "setting": "308.15 K, x2 = 1.626e-05", "value": "0.714 ± 0.027", "unit": "mPa·s"}, {"measurement": "viscosity", "setting": "308.15 K, x2 = 1.806e-05", "value": "0.714 ± 0.027", "unit": "mPa·s"}, {"measurement": "viscosity", "setting": "313.15 K, x2 = 1.81e-06", "value": "0.64 ± 0.027", "unit": "mPa·s"}, {"measurement": "viscosity", "setting": "313.15 K, x2 = 3.61e-06", "value": "0.642 ± 0.027", "unit": "mPa·s"}, {"measurement": "viscosity", "setting": "313.15 K, x2 = 5.42e-06", "value": "0.643 ± 0.027", "unit": "mPa·s"}, {"measurement": "viscosity", "setting": "313.15 K, x2 = 7.22e-06", "value": "0.644 ± 0.027", "unit": "mPa·s"}, {"measurement": "viscosity", "setting": "313.15 K, x2 = 9.03e-06", "value": "0.644 ± 0.027", "unit": "mPa·s"}, {"measurement": "viscosity", "setting": "313.15 K, x2 = 1.084e-05", "value": "0.645 ± 0.027", "unit": "mPa·s"}, {"measurement": "viscosity", "setting": "313.15 K, x2 = 1.264e-05", "value": "0.645 ± 0.027", "unit": "mPa·s"}, {"measurement": "viscosity", "setting": "313.15 K, x2 = 1.445e-05", "value": "0.645 ± 0.027", "unit": "mPa·s"}, {"measurement": "viscosity", "setting": "313.15 K, x2 = 1.626e-05", "value": "0.645 ± 0.027", "unit": "mPa·s"}, {"measurement": "viscosity", "setting": "313.15 K, x2 = 1.806e-05", "value": "0.645 ± 0.027", "unit": "mPa·s"}, {"measurement": "viscosity", "setting": "318.15 K, x2 = 1.81e-06", "value": "0.594 ± 0.027", "unit": "mPa·s"}, {"measurement": "viscosity", "setting": "318.15 K, x2 = 3.61e-06", "value": "0.596 ± 0.027", "unit": "mPa·s"}, {"measurement": "viscosity", "setting": "318.15 K, x2 = 5.42e-06", "value": "0.597 ± 0.027", "unit": "mPa·s"}, {"measurement": "viscosity", "setting": "318.15 K, x2 = 7.22e-06", "value": "0.597 ± 0.027", "unit": "mPa·s"}, {"measurement": "viscosity", "setting": "318.15 K, x2 = 9.03e-06", "value": "0.598 ± 0.027", "unit": "mPa·s"}, {"measurement": "viscosity", "setting": "318.15 K, x2 = 1.084e-05", "value": "0.598 ± 0.027", "unit": "mPa·s"}, {"measurement": "viscosity", "setting": "318.15 K, x2 = 1.264e-05", "value": "0.598 ± 0.027", "unit": "mPa·s"}, {"measurement": "viscosity", "setting": "318.15 K, x2 = 1.445e-05", "value": "0.598 ± 0.027", "unit": "mPa·s"}, {"measurement": "viscosity", "setting": "318.15 K, x2 = 1.626e-05", "value": "0.598 ± 0.027", "unit": "mPa·s"}, {"measurement": "viscosity", "setting": "318.15 K, x2 = 1.806e-05", "value": "0.598 ± 0.027", "unit": "mPa·s"}]}]}
